Experimental data as given in ChEMBL document CHEMBL3603733, “Synthesis and biological evaluation of (3',5'-dichloro-2,6-dihydroxy-biphenyl-4-yl)-aryl/alkyl-methanone selective CB2 inverse agonist” (Bioorg Med Chem, 2015).
Active and inactive are the calls of the source. The calls are words filed in the database; no cut-off is given here.

Protein sequences, listed by entry. Tags and fused reporters are not part of them.
UniProt P21554, whole entry: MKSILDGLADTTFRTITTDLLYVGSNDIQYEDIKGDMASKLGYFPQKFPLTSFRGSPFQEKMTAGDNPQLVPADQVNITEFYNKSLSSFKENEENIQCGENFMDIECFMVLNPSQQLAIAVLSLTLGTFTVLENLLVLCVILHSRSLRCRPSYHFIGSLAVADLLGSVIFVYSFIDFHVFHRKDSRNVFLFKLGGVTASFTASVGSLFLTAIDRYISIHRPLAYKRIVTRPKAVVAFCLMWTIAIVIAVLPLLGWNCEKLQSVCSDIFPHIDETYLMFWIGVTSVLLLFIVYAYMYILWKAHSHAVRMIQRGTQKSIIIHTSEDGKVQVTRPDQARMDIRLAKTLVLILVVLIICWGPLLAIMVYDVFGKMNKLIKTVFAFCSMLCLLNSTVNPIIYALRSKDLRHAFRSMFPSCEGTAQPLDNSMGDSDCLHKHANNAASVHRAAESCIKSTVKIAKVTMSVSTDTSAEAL
UniProt P34972, whole entry: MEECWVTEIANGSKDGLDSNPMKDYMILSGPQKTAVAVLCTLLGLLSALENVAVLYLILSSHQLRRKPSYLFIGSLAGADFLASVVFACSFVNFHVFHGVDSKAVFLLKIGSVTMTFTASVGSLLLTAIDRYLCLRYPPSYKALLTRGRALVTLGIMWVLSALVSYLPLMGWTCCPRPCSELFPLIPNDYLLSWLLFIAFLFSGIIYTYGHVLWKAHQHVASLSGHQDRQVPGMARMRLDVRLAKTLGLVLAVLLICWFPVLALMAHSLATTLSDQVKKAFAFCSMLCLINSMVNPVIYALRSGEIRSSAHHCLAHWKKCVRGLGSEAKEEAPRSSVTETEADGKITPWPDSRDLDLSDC

What was measured:
[1] = target: T1, Cannabinoid receptor 1 (Homo sapiens, UniProt P21554); experiment: Inverse agonist activity at CB1 receptor (unknown origin) expressed in HEK cells assessed as increase in cAMP production at 5 x 10^-6 to 5 x 10^-10 M measured at 50 mins by ACTOne dye-based fluorescence assay in presence of forskolin and Ro 20-1724 relative to control; format: functional, cell-based; details: HEK293
Method in brief: (§1)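 HEK-CNG+CB1 or HEK-CNG+CB2 cells, plus parental HEK-CNG, were plated at 50,000 cells/well in DMEM with 10% FBS the day before. Membrane potential dye was loaded for 1 h in the dark at room temperature. Ligands were added at 5x10⁻⁶ to 5x10⁻¹⁰ final, with 25 µM Ro 20-1724 and 800 nM forskolin, in DPBS with 2.5% DMSO. Fluorescence (Ex 540, Em 590 nm) was read at 50 min. At least six biological replicates were run, with non-linear fitting.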

[2] = species: Homo sapiens; experiment: Selectivity ratio of Ki for CB1 receptor (unknown origin) to Ki for CB2 receptor (unknown origin)
[3] = target: Cannabinoid receptor 2 (Homo sapiens, UniProt P34972); experiment: Inverse agonist activity at CB2 receptor (unknown origin) expressed in HEK cells assessed as increase in cAMP production at 5 x 10^-6 to 5 x 10^-10 M measured at 50 mins by ACTOne dye-based fluorescence assay in presence of forskolin and Ro 20-1724 relative to control; format: functional, cell-based; details: HEK293; method in brief: as §1
[4] = target: T1, Cannabinoid receptor 1; experiment: Displacement of [3H]-CP55940 from CB1 receptor (unknown origin) expressed in HEK-CNG cell membranes after 90 mins by liquid scintillation counting analysis

SMILES	Efficacy [1]	Ratio Ki [2]	Efficacy [3]	Ki [4]
CCCCc1ccc(C(=O)c2cc(O)c(-c3cc(Cl)cc(Cl)c3)c(OC)c2)cc1	inactive	1	–	–
CCCc1ccc(C(=O)c2cc(O)c(-c3cc(Cl)cc(Cl)c3)c(O)c2)cc1	inactive	167	–	–
O=C(c1cccc(C(F)(F)F)c1)c1cc(O)c(-c2cc(Cl)cc(Cl)c2)c(O)c1	inactive	0.41	inactive	–
COc1cc(C(=O)c2ccc(C)cc2)cc(O)c1-c1cc(Cl)cc(Cl)c1	inactive	1	–	–
Cc1cccc(C(=O)c2cc(O)c(-c3cc(Cl)cc(Cl)c3)c(O)c2)c1	inactive	3.82	inactive	–
CCCCCCC(=O)c1cc(O)c(-c2cc(Cl)cc(Cl)c2)c(O)c1	inactive	1	inactive	–
COc1cc(C(=O)c2ccc(Cl)cc2)cc(OC)c1-c1cc(Cl)cc(Cl)c1	inactive	1	inactive	–
CC(C)(C)c1ccc(C(=O)c2cc(O)c(-c3cc(Cl)cc(Cl)c3)c(O)c2)cc1	inactive	0.8	–	–
CCc1ccc(C(=O)c2cc(O)c(-c3cc(Cl)cc(Cl)c3)c(O)c2)cc1	inactive	30.3	–	–
CC(C)c1ccc(C(=O)c2cc(O)c(-c3cc(Cl)cc(Cl)c3)c(O)c2)cc1	inactive	20.7	–	–
Cc1ccc(Cn2nc(C(=O)N[C@@H]3C(C)(C)[C@@H]4CC[C@@]3(C)C4)cc2-c2ccc(Cl)c(C)c2)cc1 [SR-144528]	–	–	–	> 10 µM
